Most compounds without a hit are left out; they make up all but 1.9% or so of the library.
ARNT TACC3 PPI: disruptors of human ARNT/TACC3 interaction. AlphaScreen His-ARNT PAS-B/GST-TACC3 binding, luminescence; TACC3 fragment carries E629A point mutation. AID 623870. inhibition, % at 9.99 µM. Q9Y6A5. 390,000 compounds, 0.66% hits;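 active = mean inhibition of replicates at least 50% and at least half of replicates each reaching 50%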;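 note: 0% = complete ARNT plus TACC3 wells and 100% = ARNT alone without TACC3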
FGF22 binding: shifts melting point of recombinant human FGF22; Q9HCT0; recombinant FGF22 thermal shift, SYPRO orange fluorescence; percent of sucrose octasulfate shift, DMSO zero; activity (Tm shift, normalised), % at 9.99 µM; 340,000 compounds, 1.5% hits; AID 651658;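 active = mean Tm shift, scaled 0 neutral to 100 positive control, at about 1.3% or above, every replicate too, limit read from the data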
Yeast UUG start: modulators of start codon recognition fidelity in yeast; S. cerevisiae UUG-firefly luciferase reporter, luminescence/redox ratio; activity score, % at 18.7 µM; hit rate 0.13% among 350,000; AID 602363;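 active = replicate mean at a twofold rise or more, about +100% in these data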;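 note: firefly luciferase made from a UUG start codon reports start codon fidelity; reporter light over untreated wells divided by growth signal over untreated wells; some hits fall short of that in this replicate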
PglD inh: inhibitors of Campylobacter jejuni PglD acetyltransferase | purified PglD enzyme, DTNB colorimetric CoA detection | 360,000 compounds, 0.098% hits | inhibition, % at 12.5 µM | AID 602405; in the data active = inhibition above about 16%, passing the limit was not always enough
PDI turbidity: PDI (human) enzyme inhibition; P07237; 350,000 compounds, 0.052% hits; PDI insulin aggregation turbidity, A650, 90 min; AID 588391; inhibition, % at 10 µM;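 active = mean inhibition across replicates of 30% or more, whatever share of single replicates reach that level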
ERp5 block: ERp5 (human) disulfide isomerase inhibition. Q15084. ERp5 insulin aggregation, absorbance 650 nm, 90 min. inhibition, % at 9.99 µM. 350,000 compounds, 0.05% hits. AID 651711;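 active = mean replicate inhibition above about 25%, with every replicate also reaching it, limit read from the data, passing the limit was not always enough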
Active calls of the source: *.

C[C@@H]1CN([C@@H](C)CO)C(=O)c2cccc(NC(=O)Nc3ccc(C(F)(F)F)cc3)c2O[C@@H]1CN(C)Cc1ccncc1 was read as ARNT TACC3 PPI 2, FGF22 binding 0, Yeast UUG start -1, PglD inh 1 and ERp5 block -3.
Screening COCC#Cc1cnc2c(c1)C(=O)N([C@H](C)CO)C[C@@H](C)[C@H](CN(C)C)O2 returned ARNT TACC3 PPI 26, FGF22 binding 0, Yeast UUG start 12, PglD inh 0 and ERp5 block -2.
COc1ccccc1OCC(=O)N/N=C/c1cccc2cccnc12 was read as ARNT TACC3 PPI 78*, FGF22 binding 0, Yeast UUG start -15, PglD inh 1, PDI turbidity -3 and ERp5 block 3.
Screening COc1ccc(C[C@@H]2OC3(C=CC(=O)C=C3)O[C@H]2Cc2ccc(OC)cc2)cc1 returned ARNT TACC3 PPI -7 and PDI turbidity 67*.
Screening O=C1C=CC2(C=C1)O[C@H](Cc1ccccc1)[C@@H](Cc1ccccc1)O2 returned ARNT TACC3 PPI 6, FGF22 binding 0, PDI turbidity 44* and ERp5 block 3.
For Cn1c(C2=C(O)CN(c3ccccc3)C2=N)nc2ccccc21 the results were ARNT TACC3 PPI -4, FGF22 binding 44*, PDI turbidity -5 and ERp5 block -8.
Screening COc1cc(N/N=C/c2ccccc2O)ncn1 returned ARNT TACC3 PPI 63*, Yeast UUG start -34, PglD inh 1 and PDI turbidity -4.
COc1cc(/C=N/Nc2ccccn2)cc(OC)c1O was read as ARNT TACC3 PPI 66*, FGF22 binding 41, PDI turbidity -1 and ERp5 block -5.
Screening CCC(=O)Nc1ccc2c(c1)OC[C@@H](C)N(C(=O)COC)C[C@@H](C)[C@H](OC)CN(C)C2=O returned ARNT TACC3 PPI -3, FGF22 binding 0, PglD inh -2 and ERp5 block 5.
CS(=O)(=O)N1CCN(C/C=C/c2ccccc2)CC1 was read as ARNT TACC3 PPI -15 and PDI turbidity -8.
Screening C[C@H]1COC[C@@H](C/C=C/c2ccccc2)N1c1ccccc1 returned FGF22 binding 43*, Yeast UUG start -14, PglD inh 5, PDI turbidity -3 and ERp5 block 4.
`C[C@@H]1CN([C@H](C)CO)C(=O)c2cc(NS(=O)(=O)c3ccc(Cl)cc3)ccc2O[C@@H](C)CCCCO[C@H]1CN(C)C(=O)C1CCCCC1` gave ARNT TACC3 PPI 4, FGF22 binding 0, Yeast UUG start -7, PglD inh 3 and ERp5 block 3.
For CC(=O)Nc1cccc(C(=O)/C=C/c2ccc(F)cc2)c1 the results were FGF22 binding 0, Yeast UUG start -9, PglD inh 7, PDI turbidity -8 and ERp5 block 4.
For CC(=O)Nc1cccc(C(=O)/C=C/c2ccc(/C=C/C(=O)c3cccc(NC(C)=O)c3)cc2)c1 the results were FGF22 binding 43* and ERp5 block 6.
CC(C)OC(=O)CC1C(=O)NCCN1C(=S)NC(=O)c1ccccc1Cl (stereo not given) was read as ARNT TACC3 PPI -6, FGF22 binding 44*, Yeast UUG start 1, PglD inh 3, PDI turbidity 2 and ERp5 block -4.
Screening CCCc1cn(CC[C@@H]2CC[C@@H](NS(=O)(=O)c3ccc(-c4ccccc4)cc3)[C@H](CO)O2)nn1 returned ARNT TACC3 PPI -9, FGF22 binding 0, Yeast UUG start -6, PglD inh 2 and ERp5 block 0.
`O=C(NC(=S)NCCCN1CCOCC1)c1ccc([N+](=O)[O-])cc1` gave FGF22 binding 43*, PDI turbidity 2 and ERp5 block -5.
For Cc1ccc(C(=O)NC(=S)NNC(=O)CCN2CCOCC2)cc1 the results were ARNT TACC3 PPI 40*, FGF22 binding 0, PDI turbidity 1 and ERp5 block 5.
`O=C(NC(=S)NCCN1CCOCC1)c1ccc(F)cc1` gave ARNT TACC3 PPI -2, FGF22 binding 0, PDI turbidity -3 and ERp5 block 2.

Source: PubChem BioAssay
